Key:
LLC = test: Antitumor activity, C57BL/6J mice bearing s.c. LLC
Text: Male C57BL/6J mice (˜8 weeks, ˜20 g) were inoculated with 5×10^6 viable LLC or A2058 melanoma cells s.c. The tumors were allowed to grow to a volume of approximately 100 mm^3. […] Each group consisted of 5 mice. Mice were euthanized when tumors reached or surpassed a size equivalent to 30% of their body weight. Animals were weighed daily and observed for signs of tumor progression and euthanized if their body weight decreased below 80% of their starting weight. Animals were monitored for general health, weight loss, and tumor progression. At termination, mice underwent post-mortem examination and tumors were dissected and weighed. […] The same dosing schedule was repeated with white SCID male mice (˜8 weeks, 20 g) inoculated with 5×10^6 viable A2058 human melanoma cells s.c. and treated as described above.

A2058 human melanoma = test: Antitumor activity, SCID mice bearing s.c. A2058 human melanoma; format: in vivo; settings: during the A2058 study
Text: Each group consisted of 5 mice. […] 500 mm^3.

Early mouse development = settings: injected into 7 and 17 day-old mice
[1] = phosphate buffered saline or citrate buffer, pH 5.5, 0.2 M at 37° C., no enzyme
[2] = Rotorod test and body weight, 5 weeks treatment; settings: 30 mg/kg q.o.d. s.c. for 5 weeks
[3] = cited from earlier work

Substance: HPMA copolymer-Gly-Phe-Leu-Gly (SEQ ID NO: 1)-ethylenediamine-TNP-470 [HPMA copolymer-TNP-470]
- weight loss (LLC; 30 mg/kg q.o.d.): did not induce weight loss
- animal weight loss (LLC; 90 mg/kg/q.o.d.): no animal weight loss
- deaths due to toxicity and weight loss (A2058 human melanoma): neither deaths due to toxicity nor weight loss
- effect on normal development (weight gain) of newborn mice (Early mouse development; listed as Conjugated TNP-470): did not affect body weight
- effect on normal development (weight gain) of newborn mice (Early mouse development; listed as HPMA copolymer-TNP-470 conjugate): developed similarly to the control group
- stability of the conjugate [1]: stable for three days
- body weight [2]: gained weight similar to control mice
- time remaining on the rotating rod [2]: indistinguishable from that of control mice
- half-life in circulating serum (estimated): up to 24 hours
- time post injection that TNP-470 active species were present in sera and tumors (mice injected with the conjugate): up to 48 h

Substance: HPMA copolymer-doxorubicin [PK1]
- t1/2a ([3]; clinical pharmacokinetics): 1.8 h
- time to low blood levels (renal elimination) ([3]; in animals and in humans): 1 to 5 h
- maximum tolerated dose ([3]; phase I): 320 mg/m^2

Source: patent US6949584B2, “TNP-470 species, polymer conjugates and use thereof” (Children's Medical Center Corporation, priority 2002, dated 2005)
